From patent US20170056496A1 (Sanofi, priority 2008, published 2017)

Conditions: cyclophosphamide alone, IV day 11 and 15 (total injected dose 354.8 mg/kg)

## O=P1(N(CCCl)CCCl)NCCCO1 (stereo not shown) [cyclophosphamide]
  highest nontoxic dose (HNTD): 177.4 mg/kg/inj
